An excerpt weighted towards active compounds, which were near 13% of everything screened.
Sfp inh: blocks B. subtilis Sfp PPTase activity. AID 1490. Q9F4F7. Biochemical Sfp PPTase activity, qHTS. hit rate 3.5% among 310,000. Potency, µM, for the others: max response, negative = inhibition, usual class: inhibitors; active = well fitted inhibition curve with a large enough effect; inconclusive = small, poorly fitted or top-dose-only effect, or another doubt; inactive = no such curve, though single readings can be large or run the other way;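 also: the enzyme is Sfp with the accession as filed and its product quenches rhodamine fluorescence; potency is read from the fitted curve at half-maximal effect; 0% = enzyme reaction without inhibitor and -100% = no enzyme wells; top concentration of the series not given in the record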
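Reaction rates are the 30-min fluorescence difference (ex 525, em 598 nm) in wells containing 15 nM Sfp, 5 uM rhodamine-CoA and 12.5 uM BHQ-2-YbbR at pH 7.6 with 10 mM MgCl2.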
JMJD2E inh: blocks human JMJD2E demethylase activity; JMJD2E catalytic domain, FDH-coupled NADH fluorescence (FDH is formaldehyde dehydrogenase); Potency, µM (series often up to 57.1 µM), for the others: top-dose activity change, negative = inhibition, actives largely listed as inhibitors; 1.6% of 230,000 active; active means well fitted inhibition curve with a large enough effect, not every such curve was filed as active; inconclusive means small, poorly fitted or top-dose-only effect, or another doubt; inactive means no such curve, though single readings can be large or run the other way;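 further: potency means the concentration at half of the fitted maximal effect; 0% = wells with enzyme and -100% = buffer wells without enzyme; nearly all actives have a fitted effect of over 50% in size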
LMNA splice mod: changes lamin A minigene splicing in HeLa cells; AID 1487; 0.01% of 200,000 active; Potency, µM (titrated, usually from 46.1 µM), for the others: at the highest dose ratio change, negative = inhibition, most hits filed as inhibitors; HeLa LMNA splicing GFP/RFP minigene ratio, 48 h; active means well fitted inhibition curve with a large enough effect in the signal ratio, with a control signal flat, not every such curve was filed as active; inconclusive means small, poorly fitted or top-dose-only effect, or effect the other way, or a change in a side signal; the % refers to the signal ratio; further: potency means the concentration at half of the fitted maximal effect; on the % scale 0 is the no-effect control and ±100 the full control effect
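S3 HeLa cells stably expressing lamin A-EGFP splicing minigene plus DsRed2, 600 cells/well, 48 h compound exposure at 37C. Laser-scanning cytometry; analysed as GFP (500-530 nm)/RFP (575-640 nm) total intensity ratio; 0.5% DMSO vehicle.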
miR-21 reporter: miR-21 reporter, rising signal | HeLa miR-21 FLuc reporter, luciferase, 48 h | Potency, µM (highest dose often 38.3 µM), for inactives: at the top dose reporter change, positive = more light | 340,000 tested, under 10 active | AID 2288; active = well fitted rising curve with a large enough effect; inconclusive = small, poorly fitted or top-dose-only effect; inactive = no such curve, though single readings can be large or run the other way;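 further: % of control where 0% means no effect; miR-21 action dims this reporter so a rising signal means less miR-21 action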
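Compounds were titrated across several concentrations (up to approximately 40 uM) and incubated 48 hours with HeLa miR-21-FLuc reporter cells (miR-21 target sequence downstream of FLuc, endogenous miR-21). Readout was firefly luciferase luminescence after lytic detection reagent.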
G9a block: inhibitors of human histone lysine methyltransferase G9a | G9a H3K9 monomethylation, AlphaScreen, 2 h | Potency, µM (doses to about 102 µM), for the others: at the highest dose activity, negative = inhibition, actives largely listed as inhibitors | 8.8% of 350,000 active | AID 504332; further: potency means the concentration at half of the fitted maximal effect; on the % scale 0 is the no-effect control and ±100 the full control effect; nearly all actives have a fitted effect of over 75% in size
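G9a (20 nM) preincubated 15 min RT with compounds, then 500 nM biotinylated H3K9 peptide and 20 uM SAM added; 2 h RT reaction. Monomethyl-H3K9 product detected by AlphaScreen with anti-H3K9me1 antibody, streptavidin donor and anti-rabbit IgG acceptor beads.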
ALDH1A1 inh: blocks purified human ALDH1A1 activity. P00352. Purified ALDH1A1, NADH fluorescence, propionaldehyde substrate. Potency, µM (highest dose often 75.3 µM), for inactives: at the top dose activity, negative = inhibition, hits mostly inhibitors. 7.3% of 220,000 active. AID 1030; active means well fitted inhibition curve with a large enough effect, not every such curve was filed as active; inconclusive means small, poorly fitted or top-dose-only effect, or another doubt; inactive means no such curve, though single readings can be large or run the other way;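 further: potency means the concentration at half of the fitted maximal effect; plate controls were no enzyme wells and a reference inhibitor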
Active calls of the source: *; ? = inconclusive; . = no result given; ! = not confirmed by another sample; [ ] = remark or other dose. Unless noted, the call rests on the fitted dose curve; in most records, active means well fitted curve in the direction sought with a large enough effect; inconclusive means small, poorly fitted or top-dose-only effect, or another doubt; inactive means no such curve, though single readings can be large; an effect the other way counts as inactive or inconclusive.

Compound	Sfp inh	JMJD2E inh	LMNA splice mod	miR-21 reporter	G9a block	ALDH1A1 inh
CC(=O)Nc1cccc(N)c1	.	.	.	.	6%[0.501 µM]	16%
C/C(=N\Nc1ccccc1)c1cccc(N)c1	-10%	.	.	-43%	8.9µM*	.
C/C(=N\NC(=S)Nc1cccc(C)c1)c1cccc(N)c1	7%	3%	-5%	-29%	?	-11%
C/C(=N\NC(=O)c1cc(O)cc(O)c1)c1ccc(NC(=O)Cc2ccccc2)cc1	4%	.	.	-33%	8.9µM*	.
C/C(=N\NC(=S)Nc1ccc(C)cc1)c1cccc(N)c1	29%	1%	?	-28%	45µM*	-11%
COc1cccc(C(=O)N(Cc2nc(-c3ccc(Cl)cc3)no2)C(C)C)c1OC	.	.	.	3%	-6%[59 µM]	.
C/C(=N\NC(=O)c1cccc(N/N=C(\C)c2ccccc2)c1)c1ccccc1	12%	1%	-17%	-66%	2.8µM*	12µM*
C=CCNC(=S)N/N=C(\C)c1cccc(NC(C)=O)c1	50µM*	5%	?	8%	51%	1%
C/C(=N/Nc1cc(-c2ccccc2)nc(-c2ccccc2)n1)c1ccc(O)cc1	6%	?	?	-28%	-17%[59 µM]	?
C/C(=N\NC(=O)c1cccc(N/N=C(\C)c2ccncc2)c1)c1ccncc1	6%	6%	?	-15%	-41%	?
C=CCNC(=S)Nc1cccc(NC(=S)NCC=C)c1	5%	3%	-6%	-7%	4%	3%
C/C(=N/Nc1nc(-c2ccccc2)cc(-c2ccccc2)n1)c1ccc(N)cc1	-21%	4%	?	19%	11µM*	-10%
CCC(C)NC(=O)CSc1nc2n[nH]c(C)c2c(=N)n1-c1cc(Cl)ccc1C (stereo not given)	.	.	3%[46 µM]	-2%	-8%[59 µM]	.
CC(C#N)Sc1ccc(S(=O)(=O)N2CCCC2)cn1 (stereo not given)	.	.	.	.	12%[12.7 µM]	.
CC1CCN(S(=O)(=O)c2nnc(NC(=O)c3ccc(C(C)C)cc3)s2)CC1	.	.	11%[46 µM]	-34%	14µM*	.
COc1ccc(C(=O)Nc2nnc(S(=O)(=O)N3CCCCCC3)s2)cc1OC	10%	.	9%[46 µM]	-2%	?	.
COc1ccc(C(=O)Nc2nnc(S(=O)(=O)N3CCC(C)CC3)s2)cc1OC	7%	.	?	0%	13µM*!	.
CC(C)c1ccc(C(=O)Nc2nnc(S(=O)(=O)N3CCCCC3)s2)cc1	21%	.	.	-3%	23%	.
Cc1ccccc1NC(=O)CSc1nnc(COc2ccc(Cl)cc2)o1	.	.	.	14%	?	.
Cc1nnc(N/N=C/c2cc([N+](=O)[O-])c(N3CCC(C)CC3)cc2N2CCC(C)CC2)n1N	?	?	?	20%	?	7.1µM*
CCc1nnc(N/N=C/c2ccc(N3CCC(C)CC3)c([N+](=O)[O-])c2)n1N	71µM*	?	-2%	-18%	50µM*	22µM*
NC(=S)N/N=C1\CC(n2nnnc2-c2ccccc2)C2COC1O2 (stereo not given)	-53%	-5%	.	0%	?	.
NC(=S)N/N=C1\CC(n2nnn(-c3cccc(Cl)c3)c2=S)C2COC1O2 (stereo not given)	-13%	-6%	16%[46 µM]	0%	40µM*	-1%
COCCn1c(=O)c(-c2cccs2)nc2cnc(Oc3ccccc3)nc21	4%	.	-14%	.	-5%[0.501 µM]	?
O=C(O)CCCCCNS(=O)(=O)c1ccc2c3c(cccc13)C(=O)N2	-1%	.	.	-5%	79µM*	.

Shown as a hit in Sfp inh, among the entries above:
Compound	Sfp inh	JMJD2E inh	LMNA splice mod	miR-21 reporter	G9a block	ALDH1A1 inh
C=CCNC(=S)N/N=C(\C)c1cccc(NC(C)=O)c1	50µM*	5%	?	8%	51%	1%
CCc1nnc(N/N=C/c2ccc(N3CCC(C)CC3)c([N+](=O)[O-])c2)n1N	71µM*	?	-2%	-18%	50µM*	22µM*

The main list resumes, repeating the two entries before the break.
Compound	Sfp inh	JMJD2E inh	LMNA splice mod	miR-21 reporter	G9a block	ALDH1A1 inh
COCCn1c(=O)c(-c2cccs2)nc2cnc(Oc3ccccc3)nc21	4%	.	-14%	.	-5%[0.501 µM]	?
O=C(O)CCCCCNS(=O)(=O)c1ccc2c3c(cccc13)C(=O)N2	-1%	.	.	-5%	79µM*	.
Cc1cc(C)cc(NC(=O)Nc2ccccc2OCc2cc(=O)n3ccccc3n2)c1	.	.	?	-6%	3%[59 µM]	.
O=C(Oc1ccccc1)c1ccc2nsnc2c1	-9%	3%	-3%	-11%	?	4µM*
CCc1ccc(-n2c(=O)c3ccc(C(=O)NCCc4ccccc4)cc3n(Cc3ccccc3C#N)c2=O)cc1	.	.	.	-8%	36%[59 µM]	.
COc1cc(/C=N/Nc2snc(SC)c2C#N)ccc1O	-22%	?	?	-28%	?	1%
CSc1nsc(/C=C/Nc2ccc(C)cc2)c1C#N	-1%	1%	?	0%	2.2µM*	7.5µM*
Cc1cc(C)cc(-n2nnc(-c3nc(-c4ccccc4F)no3)c2C)c1	.	.	.	-26%	-6%[59 µM]	.
CC(=O)c1cccc(-n2c(CCC(=O)O)ccc2-c2ccccc2)c1	71µM*	.	.	-22%	40µM*	.
CC(=O)c1ccc(-n2c(CCC(=O)O)ccc2-c2ccccc2)cc1	22%	.	.	-7%	-14%[2.33 µM]	.
CC(=O)c1cccc(-n2c(CCC(=O)O)ccc2-c2cccs2)c1	8.9µM*	-13%	7%	-19%	?	7.9µM*
CC(C)(C)c1ccc(C(=O)Nn2c(CCC(=O)O)ccc2-c2cccs2)cc1	56µM*	-21%	-28%	4%	4%[12.7 µM]	?
COc1cccc(NC(=O)Cn2c(CCC(=O)O)ccc2-c2cccs2)c1	14%	-25%	17%[46 µM]	-1%	-7%	?
O=C(O)CCc1ccc(-c2ccccc2)n1-c1cccc(Br)c1	.	.	.	-6%	16µM*	.
CC(NC(=O)COC(=O)CCN1C(=O)C2CC=CCC2C1=O)c1ccc(Br)cc1 (stereo not given)	.	.	.	.	7%[12.7 µM]	.
O=C(COc1ccc(Br)cc1)N(Cc1ccco1)C1CCS(=O)(=O)C1 (stereo not given)	18%	.	.	-1%	-1%	.
Cn1c(=O)c2c(nc(SCCN3CCOCC3)n2C)n(C)c1=O	22%	.	.	5%	.	.
Cc1ccc(-c2ccc(CCC(=O)O)n2-c2cccc(O)c2)cc1	6%	?	-12%	-15%	14µM*	?
CN(C)c1ccc(-n2c(CCC(=O)O)ccc2-c2ccccc2)cc1	.	.	.	0%	11µM*	.
O=C(O)CCc1ccc(-c2ccc(Cl)cc2)n1-c1cccc(C(F)(F)F)c1	.	.	.	0%	16µM*	.
O=C(O)CCc1ccc(-c2cccs2)n1-c1ccc(C(=O)O)cc1	28µM*	?	0%	0%	14µM*	13µM*
COc1ccc(C)cc1NC(=O)CC1NCCNC1=O (stereo not given)	.	.	.	0%	11%[59 µM]	.
Cc1cc(NC(=O)CS(=O)(=O)c2ccc(Cl)cc2)no1	9%	.	.	-1%	-7%	.
COc1ccc2c(CNCc3ccc(Cl)cc3)c(C(=O)O)n(Cc3ccccc3C)c2c1	.	.	.	0%	-24%[59 µM]	.
COC(=O)c1ccc(COc2ccc(Cl)cc2)o1	1%	.	.	-26%	114%	.
COC(=O)c1ccc(COc2ccc(/C=N/NC(N)=S)cc2)o1	-4%	-24%	.	?	50µM*	?
CCOC(=O)C(=CNc1ccc(Cl)cn1)C(=O)OCC	8%	4%	.	-4%	-6%	.
CCOC(=O)C(=CNNc1cccc(Cl)c1)C(=O)OCC	?	-22%	.	-13%	3.5µM*	.

Assay outcomes: PubChem, National Center for Advancing Translational Sciences (NCATS)
